# Ab-14 heavy chain CDR variants: yeast mating affinities

Source: Engelhart et al. 2022 (doi:10.1038/s41597-022-01779-4), MIT Lincoln Laboratory and A-Alpha Bio; data file from the FLAb repository.

All variants were tested on one target, the spike HR2 peptide PDVDLGDISGINAS (SARS-CoV-2).

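The parent was found by panning a naive human phage display library on the peptide. In library AAYL49, one, two or three CDR residues were substituted; doubles and triples were drawn at random. AlphaSeq pools MATa yeast showing the antibodies with MATalpha yeast showing the peptide. Binding brings cells together so that they mate, and sequencing counts the barcode pairs among the diploids. Each replicate has its own calibration line, from reference interactions of the BCL2 family. There are three technical replicates.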

Parent scFv Ab-14: VH joined to VL by a (GGGGS)3 linker. Changes lie in the heavy chain CDRs alone.
VH: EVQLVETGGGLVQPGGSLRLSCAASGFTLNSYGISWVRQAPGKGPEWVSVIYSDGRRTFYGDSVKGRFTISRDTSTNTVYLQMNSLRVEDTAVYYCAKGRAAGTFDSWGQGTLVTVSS
VL: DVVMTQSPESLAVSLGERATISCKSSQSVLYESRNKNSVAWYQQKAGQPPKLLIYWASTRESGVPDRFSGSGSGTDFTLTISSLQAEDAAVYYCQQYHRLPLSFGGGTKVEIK

Variants are written as CDR1, CDR2 and CDR3 of the heavy chain (limits as in the source). Parent: GFTLNSYGIS, VIYSDGRRTFYGDSVK, GRAAGTFDS.
Affinities are written as log10 Kd with Kd in nM; a lower number is a better binder.
"n.d." means that the variant was in the library but no mating with the target was seen in that replicate; the authors take this as a sign of poor binding, and no number exists.
Three control strains display no target. For library AAYL49, 15% of the pairings with them gave a signal, with a median of 4.06 and one signal in twenty below 2.83, so weak values seen in few replicates may be background. For each scFv, signals with the empty controls are counted beside the result, with their mean in brackets.
In this assay the parent's reference entry averaged 0.65; its copy inside this library read 4.11 (one replicate of three).

{"CDR-H1": "GFTLNSYGIS", "CDR-H2": "VIYSDGRDTFYGDSVK", "CDR-H3": "GRATGTFDS", "log10 Kd (nM) by replicate": "n.d. / 3.72 / n.d.", "empty controls": "6 of 9 (3.71)"}
{"CDR-H1": "GFTLNSYGIG", "CDR-H2": "VIYSDGSRTFYGDSGK", "CDR-H3": "GRAAGTFDS", "log10 Kd (nM) by replicate": "3.92 / n.d. / 5.00", "empty controls": "5 of 9 (4.23)"}
{"CDR-H1": "GFTLNSYGIS", "CDR-H2": "VIYSDHRRTFYGDSTK", "CDR-H3": "GRKAGTFDS", "log10 Kd (nM) by replicate": "n.d. / n.d. / n.d.", "empty controls": "0 of 9"}
{"CDR-H1": "GFTLNSYGIS", "CDR-H2": "VIYSDGRRTFYGDSYA", "CDR-H3": "IRAAGTFDS", "log10 Kd (nM) by replicate": "n.d. / n.d. / n.d.", "empty controls": "0 of 9"}
{"CDR-H1": "GFTLNSYGIS", "CDR-H2": "VIYTPGRRTEYGDSVK", "CDR-H3": "GRAAGTFDS", "log10 Kd (nM) by replicate": "n.d. / n.d. / n.d.", "empty controls": "1 of 9 (3.81)"}
{"CDR-H1": "GFALNSYGIS", "CDR-H2": "VIYSDGRRTDYGDSVK", "CDR-H3": "GNAAGTFDS", "log10 Kd (nM) by replicate": "2.30 / 2.07 / 2.47", "empty controls": "5 of 9 (4.51)"}
{"CDR-H1": "GFTQNSYGIS", "CDR-H2": "VIYADGRRTFYGDSVK", "CDR-H3": "GDAAGTFDS", "log10 Kd (nM) by replicate": "0.58 / 0.89 / 0.69", "empty controls": "1 of 9 (5.14)"}
{"CDR-H1": "GFTLNSYGIS", "CDR-H2": "VIYSDGRRTFYGYSVK", "CDR-H3": "GQAAGTFDS", "log10 Kd (nM) by replicate": "1.87 / 2.05 / 2.60", "empty controls": "0 of 9"}
{"CDR-H1": "GFTLNSYRIS", "CDR-H2": "VIYSDGRRTFYGFSVK", "CDR-H3": "GRAAGTFDS", "log10 Kd (nM) by replicate": "n.d. / n.d. / n.d.", "empty controls": "1 of 9 (3.11)"}
{"CDR-H1": "GFTLNSYGIS", "CDR-H2": "VIYSTGRRLFYGDSVK", "CDR-H3": "DRAAGTFDS", "log10 Kd (nM) by replicate": "n.d. / n.d. / n.d.", "empty controls": "0 of 9"}
{"CDR-H1": "GATLNSYGIS", "CDR-H2": "VIYSDGRRTFLGCSVK", "CDR-H3": "GRAAGTFDS", "log10 Kd (nM) by replicate": "n.d. / n.d. / n.d.", "empty controls": "2 of 9 (3.46)"}
{"CDR-H1": "GFTLNSYGHS", "CDR-H2": "IIYSDGRRTFYGDSVK", "CDR-H3": "GRAAGTFDS", "log10 Kd (nM) by replicate": "n.d. / n.d. / 4.31", "empty controls": "1 of 9 (3.62)"}
{"CDR-H1": "GFWLNSYGIS", "CDR-H2": "VIYSDGRRTEAGDSVK", "CDR-H3": "GRAAGTFDS", "log10 Kd (nM) by replicate": "n.d. / n.d. / n.d.", "empty controls": "1 of 9 (3.68)"}
{"CDR-H1": "GFTLNSGGIS", "CDR-H2": "VIYSDGRRYFYGDSVK", "CDR-H3": "GRAAGTFDS", "log10 Kd (nM) by replicate": "4.04 / 4.46 / 4.69", "empty controls": "2 of 9 (4.29)"}
{"CDR-H1": "GFTLNSYGIS", "CDR-H2": "VIYSDGRRTFYGDSVT", "CDR-H3": "GRAANTFQS", "log10 Kd (nM) by replicate": "n.d. / n.d. / n.d.", "empty controls": "0 of 9"}
{"CDR-H1": "GFTLFSYGIS", "CDR-H2": "VIYSDGRRTFVGRSVK", "CDR-H3": "GRAAGTFDS", "log10 Kd (nM) by replicate": "n.d. / n.d. / n.d.", "empty controls": "0 of 9"}
{"CDR-H1": "GFTLNSYGIS", "CDR-H2": "VIYSDGRRTFYGFSVK", "CDR-H3": "IRAARTFDS", "log10 Kd (nM) by replicate": "n.d. / n.d. / n.d.", "empty controls": "1 of 9 (1.87)"}
{"CDR-H1": "GFTLNSYGIS", "CDR-H2": "VDYHDSRRTFYGDSVK", "CDR-H3": "GRAAGTFDS", "log10 Kd (nM) by replicate": "n.d. / n.d. / n.d.", "empty controls": "3 of 9 (3.27)"}
{"CDR-H1": "GWTLNSYGIS", "CDR-H2": "VIYSDGRRTFYRDSVK", "CDR-H3": "GRAIGTFDS", "log10 Kd (nM) by replicate": "4.07 / 2.45 / 3.72", "empty controls": "0 of 9"}

The last 2 entries again:

| CDR-H1 | CDR-H2 | CDR-H3 | log10 Kd (nM) by replicate | empty controls |
|---|---|---|---|---|
| GFTLNSYGIS | VDYHDSRRTFYGDSVK | GRAAGTFDS | n.d. / n.d. / n.d. | 3 of 9 (3.27) |
| GWTLNSYGIS | VIYSDGRRTFYRDSVK | GRAIGTFDS | 4.07 / 2.45 / 3.72 | 0 of 9 |